Test results: PubChem BioAssay AID425 (Sanford-Burnham Center for Chemical Genomics, 2006)
This is a selection; strong and weak results do not stand in their true shares. Results with a measured potency or affinity are listed apart. Some tests of the compounds listed are not included; inactive here does not mean inactive elsewhere. Active and inactive are the calls of the source. Cut-off read from the data, not from the text of the source: active = inhibition above about 50%; inactive = the rest.

Amino acid sequences for entries named in this document (tags omitted).
UniProt Q64346, whole entry: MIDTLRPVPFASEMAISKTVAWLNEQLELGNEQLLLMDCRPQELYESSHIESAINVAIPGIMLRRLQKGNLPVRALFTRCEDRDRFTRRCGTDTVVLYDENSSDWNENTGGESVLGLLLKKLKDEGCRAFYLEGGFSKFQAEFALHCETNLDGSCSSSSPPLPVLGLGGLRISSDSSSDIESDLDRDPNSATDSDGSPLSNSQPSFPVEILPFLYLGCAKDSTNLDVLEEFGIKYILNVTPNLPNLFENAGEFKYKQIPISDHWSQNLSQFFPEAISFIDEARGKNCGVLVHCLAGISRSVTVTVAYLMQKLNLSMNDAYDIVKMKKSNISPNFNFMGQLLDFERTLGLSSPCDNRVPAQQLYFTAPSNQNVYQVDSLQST

These molecules were tested against Dual specificity protein phosphatase 6 (Rattus norvegicus) (UniProt Q64346) (assay: MKP-3 phosphatase inhibitors, primary screen, biochemical, rat enzyme, in vitro (AID 425;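 note: plate controls were vehicle for no effect and reference inhibitor for full effect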)). Settings: recombinant MKP-3 phosphatase activity, fluorescence; at 20 µM; active compounds read high.
In the case of `COc1ccc(OC)c(C=C(C#N)C#N)c1`, the inhibition is reported as inactive: -0.7%. With `O=C(OC1CN2CCC1CC2)C(CO)(c1ccccc1)c1ccccc1` (stereo not drawn) the inhibition was inactive: -3%. With `CN(C)c1cccc(C(=O)NCC2(N(C)C)CCCCC2)c1` the inhibition was inactive: -10.2%.
